## Binding of CDR-mutated scFvs to a peptide of the spike HR2 region

Reference: Engelhart et al. 2022, doi:10.1038/s41597-022-01779-4. File: FLAb, binding data.

Antigen: PDVDLGDISGINAS, a 14-residue peptide of the SARS-CoV-2 spike HR2 region.

Parent: Ab-14, a human scFv built as VH, a 15-residue (Gly4Ser)3 linker, VL. Only the CDRs of the light chain vary.
VH: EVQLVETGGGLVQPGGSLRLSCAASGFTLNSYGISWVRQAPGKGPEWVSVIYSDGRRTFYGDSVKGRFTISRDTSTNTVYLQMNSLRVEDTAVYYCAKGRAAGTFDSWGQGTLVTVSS
VL: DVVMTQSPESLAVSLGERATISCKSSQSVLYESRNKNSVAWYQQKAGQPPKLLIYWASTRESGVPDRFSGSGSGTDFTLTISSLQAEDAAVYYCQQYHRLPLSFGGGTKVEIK

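The starting antibody came from a phage panning campaign against this peptide. Library AAYL50 holds single substitutions and randomly drawn double and triple substitutions in the CDRs. In AlphaSeq, yeast of one mating type display the scFv and yeast of the other type display the target. The frequency of each diploid, read from paired DNA barcodes, reflects how well the two displayed proteins bind. The ratio of observed to expected reads was calibrated, replicate by replicate, on BCL2-family standards whose Kd was known from biolayer interferometry. Mating was done three times.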

Changes read parent residue, position, new residue, counted from the first residue of the VL shown. Kd is apparent (estimated from mating counts) and averaged on the log scale over replicates with a signal. Smaller is tighter. "no signal" marks a missing value. The strain was present, yet no cells mated with the target were sequenced in any replicate, which points to weak or no binding. Parent in this assay: reference entry 4.4 nM, copy in this library 48 nM.

apparent Kd,detected,changes
16 nM,3/3,V29K L30S E61L
17 µM,3/3,S26F S33A L102N
790 nM,2/3,S26K Q27V V29M
19 µM,1/3,L30S N37M R60Q
8.1 µM,1/3,E32N A40P Q96R
660 nM,3/3,S25E E61N H98I
no signal,0/3,K36M T59Y Y97L
9.0 µM,1/3,S58P Y97I L102T
no signal,0/3,A57W Y97M R99H
49 nM,3/3,Y31W N35A K36A
3.6 nM,3/3,S25C S38A Y97S
9.0 nM,3/3,V29F L30V
8.0 nM,3/3,L30Q E61A L102F
4.1 µM,1/3,R60N E61C S62N
5.9 nM,3/3,S38C W56R
18 µM,1/3,Q27E A40T P101I
53 nM,3/3,S28A L30M E61H
45 nM,3/3,N35K W56H E61P
2.4 µM,1/3,E61C Q96W S103F
no signal,0/3,Q27H N35Y Q95N
22 µM,2/3,L30K W56P
no signal,0/3,Y31Q V39R H98K
130 nM,3/3,K24Q S58A L100M
no signal,0/3,E61Q L100D L102A
no signal,0/3,K24N S26W S38K
4.7 nM,3/3,Q27H T59E L102A
1.4 µM,3/3,K24Y S58G T59D
no signal,0/3,E32W R34W A40C
12 nM,3/3,L30Y S62Y S103M
5.7 nM,3/3,Q27T K36E S38P
6.4 nM,3/3,E32N S62R Y97S
5.9 µM,2/3,N35T A57W L100A
360 nM,3/3,S38G W56Y S103M
11 µM,1/3,N37V Y97F R99V
1.6 µM,1/3,L30S S38C R99P
19 µM,2/3,L30T Y31H A57I
13 nM,3/3,N35F H98W S103Q
610 nM,3/3,S26H S33E S58F
no signal,0/3,S28L H98W
28 nM,3/3,W56N S62R L100F
630 nM,1/3,S38M S58K R99C
no signal,0/3,E32C K36A S103I
no signal,0/3,N35W R60P H98F
19 nM,3/3,W56F L100K P101T
93 nM,3/3,K24E L30G Y97L
220 µM,2/3,Q95D H98M R99V
290 µM,3/3,K24A S25N S103P
no signal,0/3,S58T R99T P101A
68 µM,2/3,S38V A57K
3.3 µM,1/3,Q27K A40I P101K
1.3 µM,3/3,S25A Y31I E32I
17 nM,3/3,Q27C R99W P101K
140 µM,1/3,R34S A40W Q95C

Top 5 of the variants detected in all replicates, tightest first:

{"changes": "S25C S38A Y97S", "apparent Kd": "3.6 nM", "detected": "3/3"}
{"changes": "Q27H T59E L102A", "apparent Kd": "4.7 nM", "detected": "3/3"}
{"changes": "Q27T K36E S38P", "apparent Kd": "5.7 nM", "detected": "3/3"}
{"changes": "S38C W56R", "apparent Kd": "5.9 nM", "detected": "3/3"}
{"changes": "E32N S62R Y97S", "apparent Kd": "6.4 nM", "detected": "3/3"}

Three control strains display no target. For library AAYL50, 18% of the pairings with them gave a signal, with a median of 15 µM and one signal in twenty below 970 nM, so weak values seen in few replicates may be background.